The structures appear in SMILES notation. Like-named read-outs stand apart in the source and are kept apart here.

By UniProt entry, the sequences of proteins in these tests, tags left out. Where a name states a change or a piece, a line headed by the entry shows the natural chain unless it says otherwise.
UniProt P49841: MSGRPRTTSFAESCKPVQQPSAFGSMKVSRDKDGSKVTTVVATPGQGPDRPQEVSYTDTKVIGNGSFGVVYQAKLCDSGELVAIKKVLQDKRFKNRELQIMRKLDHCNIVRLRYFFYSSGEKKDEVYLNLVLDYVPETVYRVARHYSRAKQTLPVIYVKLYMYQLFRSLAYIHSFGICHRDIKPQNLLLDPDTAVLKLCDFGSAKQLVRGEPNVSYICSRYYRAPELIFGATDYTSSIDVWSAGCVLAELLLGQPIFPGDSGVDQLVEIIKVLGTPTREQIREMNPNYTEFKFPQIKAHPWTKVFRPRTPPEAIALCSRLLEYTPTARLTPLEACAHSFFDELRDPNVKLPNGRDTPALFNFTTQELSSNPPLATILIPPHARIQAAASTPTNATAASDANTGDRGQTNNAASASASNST
UniProt P12931, whole entry: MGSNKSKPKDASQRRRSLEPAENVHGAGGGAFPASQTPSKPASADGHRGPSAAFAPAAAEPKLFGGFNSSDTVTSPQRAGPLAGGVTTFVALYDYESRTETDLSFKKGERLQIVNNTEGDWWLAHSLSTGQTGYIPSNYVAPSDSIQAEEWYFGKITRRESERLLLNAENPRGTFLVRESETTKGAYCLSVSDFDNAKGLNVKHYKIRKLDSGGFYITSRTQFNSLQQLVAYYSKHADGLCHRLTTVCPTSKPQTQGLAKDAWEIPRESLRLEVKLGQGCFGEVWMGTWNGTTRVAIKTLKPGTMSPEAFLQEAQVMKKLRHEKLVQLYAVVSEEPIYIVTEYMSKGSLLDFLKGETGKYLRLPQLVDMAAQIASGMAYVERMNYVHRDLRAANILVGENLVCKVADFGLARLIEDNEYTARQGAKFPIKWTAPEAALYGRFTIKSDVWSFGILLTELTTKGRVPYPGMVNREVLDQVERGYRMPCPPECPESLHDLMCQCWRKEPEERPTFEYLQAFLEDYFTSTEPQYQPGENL

Drawing on patent publication US6653300B2, “Pyrazole compounds useful as protein kinase inhibitors” (Vertex Pharmaceuticals Incorporated, priority 2000, dated 2003), this text covers Ki for 4 compounds.

Holding throughout (type): biochemical
In one assay the target is T1, GSK-3β (AA 1-420) (Homo sapiens, UniProt P49841).
T1 construct: GSK-3β (AA 1-420)
In words: Ki determination for the inhibition of GSK-3 (coupled enzyme system). As to conditions: 20 nM GSK-3β, 30° C. The procedure: Compounds were screened for their ability to inhibit GSK-3β (AA 1-420) activity using a standard coupled enzyme system (Fox et al. (1998) Protein Sci. 7, 2249). Reactions were carried out in a solution containing 100 mM HEPES (pH 7.5), 10 mM MgCl2, 25 mM NaCl, 300 μM NADH, 1 mM DTT and 1.5% DMSO. Final substrate concentrations in the assay were 20 μM ATP (Sigma Chemicals, St Louis, Mo.) and 300 μM peptide (HSSPHQS (PO3H2) EDEEE, American Peptide, Sunnyvale, Calif.). Reactions were carried out at 30° C. and 20 nM GSK-3β. Final concentrations of the components of the coupled enzyme system were 2.5 mM phosphoenolpyruvate, 300 μM NADH, 30 μg/ml pyruvate kinase and 10 μg/ml lactate dehydrogenase.
An assay stock buffer solution was prepared containing all of the reagents listed above with the exception of ATP and the test compound of interest. The assay stock buffer solution (175 μl) was incubated in a 96 well plate with 5 μl of the test compound of interest at final concentrations spanning 0.002 μM to 30 μM at 30° C. for 10 min. […] The reaction was initiated by the addition of 20 μl of ATP (final concentration 20 μM). Rates of reaction were obtained using a Molecular Devices Spectramax plate reader (Sunnyvale, Calif.) over 10 min at 30° C. The Ki values were determined from the rate data as a function of inhibitor concentration.

Another assay addresses T2, Aurora-2 (Homo sapiens, UniProt O14965).
T2 sequence (O14965 1-403): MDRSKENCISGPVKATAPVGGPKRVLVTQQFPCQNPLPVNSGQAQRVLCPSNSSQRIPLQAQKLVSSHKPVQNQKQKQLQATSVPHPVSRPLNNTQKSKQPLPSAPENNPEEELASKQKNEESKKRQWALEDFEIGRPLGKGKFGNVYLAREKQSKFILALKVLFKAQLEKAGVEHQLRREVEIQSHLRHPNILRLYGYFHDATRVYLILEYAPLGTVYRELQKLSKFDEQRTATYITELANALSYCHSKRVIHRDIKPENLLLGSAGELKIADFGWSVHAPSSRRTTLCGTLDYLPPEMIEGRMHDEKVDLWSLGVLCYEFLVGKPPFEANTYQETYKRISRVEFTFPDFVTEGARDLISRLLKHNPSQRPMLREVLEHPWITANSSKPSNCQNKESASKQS
The experiment in a line: Ki determination for the inhibition of Aurora-2 (coupled enzyme assay). As to conditions: 70 nM Aurora-2, 30° C.; read-out: Ki values for Aurora-2. The procedure:
Compounds were screened in the following manner for their ability to inhibit Aurora-2 using a standard coupled enzyme assay (Fox et al (1998) Protein Sci 7, 2249).
To an assay stock buffer solution containing 0.1M HEPES 7.5, 10 mM MgCl2, 1 mM DTT, 25 mM NaCl, 2.5 mM phosphoenolpyruvate, […], 30 mg/ml pyruvate kinase, 10 mg/ml lactate dehydrogenase, […], and 800 μM peptide (LRRASLG, American Peptide, Sunnyvale, Calif.) was added a DMSO solution of a compound of the present invention to a final concentration of 30 μM. The resulting mixture was incubated at 30° C. for 10 min. The reaction was initiated by the addition of 10 μL of Aurora-2 stock solution to give a final concentration of 70 nM in the assay. The rates of reaction were obtained by monitoring absorbance at 340 nm over a 5 minute read time at 30° C. using a BioRad Ultramark plate reader (Hercules, Calif.). The Ki values were determined from the rate data as a function of inhibitor concentration.

The target of another assay is T3, human Src kinase (Homo sapiens, UniProt P12931).
T3 construct: full length recombinant human Src kinase (from Upstate Biotechnology, cat. no. 14-117); purchased Upstate Biotechnology 14-117; host or cells: baculo viral cells
The experiment in a line: SRC inhibition assay (radioactivity-based or spectrophotometric assay). The protocol:
The compounds were evaluated as inhibitors of human Src kinase using either a radioactivity-based assay or spectrophotometric assay. The compounds were assayed as inhibitors of full length recombinant human Src kinase (from Upstate Biotechnology, cat. no. 14-117) expressed and purified from baculo viral cells. […] P-0275). […] In a typical assay, all the reaction components with the exception of ATP were pre-mixed and aliquoted into assay plate wells. […] The assay plate was incubated at 30° C. for 10 min before initiating the reaction with ^33P-ATP. After 20 min of reaction, the reactions were quenched with 150 μl of 10% trichloroacetic acid (TCA) containing 20 mM Na3PO4. The quenched samples were then transferred to a 96-well filter plate (Whatman, UNI-Filter GF/F Glass Fiber Filter, cat no. 7700-3310) installed on a filter plate vacuum manifold. Filter plates were washed four times with 10% TCA containing 20 mM Na3PO4 and then 4 times with methanol. 200 μl of scintillation fluid was then added to each well. The plates were sealed and the amount of radioactivity associated with the filters was quantified on a TopCount scintillation counter. The radioactivity incorporated was plotted as a function of the inhibitor concentration. The data was fitted to a competitive inhibition kinetics model to get the Ki for the compound. The ADP produced from ATP by the human recombinant Src kinase-catalyzed phosphorylation of poly Glu-Tyr substrate was quanitified using a coupled enzyme assay (Fox et al (1998) Protein Sci 7, 2249). In this assay one molecule of NADH is oxidised to NAD for every molecule of ADP produced in the kinase reaction. The disappearance of NADH can be conveniently followed at 340 nm. […] In a typical assay, all the reaction components with the exception of ATP were pre-mixed and aliquoted into assay plate wells. […] The absorbance change at 340 nm with time, the rate of the reaction, was monitored on a molecular devices plate reader. The data of rate as a function of the inhibitor concentration was fitted to competitive inhibition kinetics model to get the Ki for the compound.

With `CC(=O)Nc1ccc(Sc2nc(Nc3cc[nH]n3)c3ccccc3n2)cc1` [IIa-63, [2-(4-Acetamido-phenylsulfanyl)-quinazolin-4-yl]-(2H-pyrazol-3-yl)-amine], the Ki was 0.1 to 1 µM at GSK-3β (AA 1-420) (Ki values for GSK-3, 20 μM ATP); less than 0.1 µM on Aurora-2; 1 to 6 µM at human Src kinase.
Taken in the same sequence, the figures for `COc1ccc(Sc2nc(Nc3cc(C)[nH]n3)c3ccccc3n2)cc1OC` [IIa-13, [2-(3,4-Dimethoxyphenylsulfanyl)-quinazolin-4-yl]-(5-methyl-2H-pyrazol-3-yl)-amine] were 1 to 7 µM, less than 0.1 µM and 1 to 6 µM.
With `CC(=O)Nc1ccc(Sc2nc(Nc3cc(C)n[nH]3)c3cccc(F)c3n2)cc1` [IIa-78, [2-(4-Acetamidophenylsulfanyl)-8-fluoro-quinazolin-4-yl]-(5-methyl-2H-pyrazol-3-yl)-amine], the Ki at GSK-3β (AA 1-420) (Ki values for GSK-3, 20 μM ATP) was 0.1 to 1 µM; on Aurora-2 it was less than 0.1 µM; on human Src kinase, 1 to 6 µM.
In the case of `Cc1cc(Nc2nc(Oc3ccccc3)nc3ccccc23)n[nH]1` [IIb-3, (5-Methyl-2H-pyrazol-3-yl)-(2-phenoxy-quinazolin-4-yl)-amine], the Ki at GSK-3β (AA 1-420) (20 μM ATP, read-out: Ki values for GSK-3) was less than 0.1 µM; on Aurora-2, less than 0.1 µM; at human Src kinase, 1 to 6 µM.

What is called Ki is a measure of affinity in units of concentration, obtained from inhibition or displacement.
